Reference: patent publication US8148386B2, “Agent for the prevention and treatment of prostatic hyperplasia comprising pyrazolopyrimidinone compound” (priority 2006, dated 2012)

Test: Interrupt rate of administration due to side effects of PDE-5 inhibitors after clinical trials on impotence

SMILES: CCCOc1ccc(S(=O)(=O)NCCC2CCCN2C)cc1-c1nc2c(CCC)nn(C)c2c(=O)[nH]1 (stereo not shown) [Compound of formula 1, 5-[2-propyloxy-5-(1-methyl-2-pyrrolidinylethylamidosulfonyl)phenyl]-1-methyl-propyl-1,6-dihydro-7H-pyrazolo(4,3-d)pyrimidin-7-one]
- side effects such as testicle toxicity or myalgia: not manifested
